# Antibody variant affinities, Ab-91 heavy chain, assay 2

Values reported by Engelhart et al. 2022, doi:10.1038/s41597-022-01779-4 (FLAb copy).

Antigen: PDVDLGDISGINAS, a 14-residue peptide of the SARS-CoV-2 spike HR2 region.

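The starting antibody came from a phage panning campaign against this peptide. AAYL51 was designed without a model: most single CDR substitutions and a random sample of double and triple ones. The scFvs were displayed on barcoded MATa yeast, the peptide on MATalpha yeast. Mating (16 h, 30 °C) was followed by selection of diploids and sequencing of their barcodes. Scores were corrected for input abundance and mapped to Kd with protein pairs of known affinity run in the same pool. Mating was done three times.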

Parent scFv Ab-91: VL joined to VH by the linker GGGGSGGGGSGGGGS. Changes lie in the heavy chain CDRs alone.
VL: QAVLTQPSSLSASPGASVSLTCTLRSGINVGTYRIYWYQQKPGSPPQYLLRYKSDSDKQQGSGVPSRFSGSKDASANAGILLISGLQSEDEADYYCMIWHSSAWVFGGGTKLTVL
VH: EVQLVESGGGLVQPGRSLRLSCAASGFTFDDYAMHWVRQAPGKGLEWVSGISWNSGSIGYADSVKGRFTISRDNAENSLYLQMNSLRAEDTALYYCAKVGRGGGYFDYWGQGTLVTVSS

Positions count from residue 1 of the parent VH; F27G puts G in place of F. Affinities are written as log10 Kd with Kd in nM; a lower number is a better binder. Where no diploid with the target was found in that replicate, the entry reads "n.d.": below detection, most likely a poor binder, though not proof of it. Three control strains display no target. For library AAYL51, 21% of the pairings with them gave a signal, with a median of 4.54 and one signal in twenty below 3.26, so weak values seen in few replicates may be background. For each scFv, signals with the empty controls are counted beside the result, with their mean in brackets.

changes,"log10 Kd, replicates",empty controls
F27G S55F G102C,n.d. / n.d. / n.d.,2/9 (5.09)
Y32D G56Q G102N,n.d. / n.d. / n.d.,0/9
N54P D62H V64M,n.d. / n.d. / n.d.,2/9 (3.42)
F29H V64F D107L,n.d. / n.d. / 4.22,2/9 (3.49)
F29N N54L V64R,n.d. / n.d. / n.d.,0/9
M34R G50H Y105N,n.d. / 5.07 / n.d.,3/9 (5.03)
G56N D62M V64M,2.39 / 3.25 / 2.64,3/9 (4.02)
G26W W53G Y60P,n.d. / n.d. / n.d.,1/9 (3.60)
W53T S57H G100T,4.55 / n.d. / n.d.,1/9 (5.43)
G26A H35C D107V,n.d. / n.d. / 5.85,5/9 (4.66)
M34Q W53E V99W,4.28 / 5.88 / n.d.,3/9 (4.11)
G26E F27Q S55E,6.01 / n.d. / n.d.,4/9 (4.50)
G26C T28L G100N,3.84 / n.d. / n.d.,2/9 (4.18)
H35Y G50W S63K,5.73 / n.d. / n.d.,2/9 (5.10)
S52F I58E G59Y,n.d. / n.d. / n.d.,0/9
G50V G56H G100H,n.d. / n.d. / 4.88,2/9 (4.52)
V99S G103N Y108S,3.66 / n.d. / n.d.,1/9 (2.71)
F29L Y32H V99H,n.d. / n.d. / n.d.,0/9
G50N G59W F106W,5.53 / n.d. / n.d.,0/9
D31M G50R S52R,n.d. / n.d. / n.d.,2/9 (4.37)
T28K I58G G102H,1.70 / 2.76 / 2.11,0/9
F27N T28L,4.20 / 4.47 / 4.13,3/9 (4.26)
F29P D31Y R101G,n.d. / n.d. / n.d.,0/9
Y32I Y60L K65A,n.d. / n.d. / n.d.,0/9
T28H G50N G100L,4.90 / 6.34 / n.d.,1/9 (4.54)
G26L Y60C K65C,n.d. / n.d. / n.d.,0/9
G50V D62T G103F,4.84 / 5.62 / n.d.,8/9 (5.35)
I51A S63R V99D,n.d. / n.d. / 3.71,1/9 (2.82)
F29S G56M I58P,n.d. / n.d. / n.d.,0/9
H35F G56Y G103R,2.27 / 1.80 / 1.54,4/9 (5.00)
A33G I51Y S55K,n.d. / n.d. / n.d.,0/9
M34I V64F,4.17 / 6.01 / n.d.,6/9 (4.83)
A33C M34W S55D,n.d. / n.d. / n.d.,1/9 (3.58)
F27R S57F G100T,n.d. / n.d. / n.d.,2/9 (4.81)
F29C G50C Y60Q,n.d. / n.d. / n.d.,0/9
G50F I51S S57I,3.88 / n.d. / n.d.,7/9 (4.30)
G26D M34Q N54Y,5.32 / n.d. / n.d.,3/9 (4.23)
Y32L Y60P V99P,5.10 / 4.17 / n.d.,3/9 (4.69)
I51V G100D F106W,n.d. / n.d. / n.d.,0/9
G26N D30Y I58F,n.d. / 3.95 / 4.19,0/9
G100D F106L,n.d. / n.d. / n.d.,0/9
G59P R101H,n.d. / n.d. / n.d.,0/9
M34W S55R I58G,n.d. / n.d. / n.d.,0/9

A selection of 7 entries from above:

changes	log10 Kd, replicates	empty controls
G50V G56H G100H	n.d. / n.d. / 4.88	2/9 (4.52)
G26C T28L G100N	3.84 / n.d. / n.d.	2/9 (4.18)
M34I V64F	4.17 / 6.01 / n.d.	6/9 (4.83)
I51V G100D F106W	n.d. / n.d. / n.d.	0/9
I51A S63R V99D	n.d. / n.d. / 3.71	1/9 (2.82)
G26A H35C D107V	n.d. / n.d. / 5.85	5/9 (4.66)
N54P D62H V64M	n.d. / n.d. / n.d.	2/9 (3.42)

For reference, the parent read 1.86 as the reference entry and 0.88 as a member of this library.